pIC50: −log10 of the molar value. Read-outs that look alike come from different tables or passages of the source. Blank lines part the entries; values can stand above or below the compound they belong to.
What was measured:
[1] = molecular target: Bovine lysyl oxidase (LOX) (Bos taurus, UniProt P33072); test: LOX inhibition assay (fluorometric, cadaverine/Amplex Red/HRP); settings: read-out: Activity Range LOX, IC50 class, bovine tendon LOX, cadaverine substrate
Experimental: (§1) The ability of compounds to inhibit prototypic LOX was determined using a fluorometric assay. This assay measures the activity of lysyl oxidases by coupling the reaction with horseradish peroxidase-catalyzed […]. The activity assay protocol uses cadaverine as substrate that releases hydrogen peroxide upon transformation by prototypic LOX enzyme present in the sample. Hydrogen peroxide is in turn detected using a red fluorescence substrate for HRP-coupled reactions (Amplex Red Enzyme Assays, Thermo Scientific Fisher). This leads to increase in fluorescence that can be easily detected at Ex/Em=540/590 nm in a fluorescence microplate reader.
Enzyme: Bovine lysyl oxidase (LOX) was extracted by adapting the methodology from [Kagan et al. 1979 and Borel et al. 2001.] from bovine tendon: Frozen adult bovine tendon was placed in room temperature water to defrost, and then membranes were removed and the remaining tissue cut into 1 cm pieces. The material was first passed through a course mesh meat grinder, and this mince was passed through a fine mesh grinder. The mince was homogenized in 10 v/w of buffer (16 mM sodium phosphate buffer pH 7.8, 400 mM NaCl) using a Waring blender. The homogenate was centrifuged at 15,000×g for 15 min at 4° C. After centrifugation, the supernatant was discarded and the pellets resuspended in 10 volumes of the same buffer. The mixture was blended again and centrifuged with the same settings. This time the pellets were blended in 3 volumes of extraction buffer (16 mM sodium phosphate buffer pH 7.8) and left to incubate at 4° C. for 2 h. After this time, the slurry was centrifuged with the same settings as described above. The supernatant was used in an ultrafiltration step to remove large proteins by size exclusion through a 30 kDalton filter (EMD Millipore). The filtrate was mixed with DEAE Sephadex (GE Healthcare), or passed over a MonoQ FPLC column. After two washes, one in 16 mM sodium phosphate buffer pH 7.8, 380 mM NaCl, and another in 16 mM sodium phosphate buffer pH 7.8, the proteins were eluted with 16 mM sodium phosphate pH 7.8, 10 μM CuSO4, and 4 M urea. Fractions containing Lox activity were collected and stored frozen at −70° C.
Reaction: Final concentration in the LOX assay was as following and performed in a total volume of […]:
Experimental procedure: 7 μl of freshly prepared reaction buffer were delivered to reaction wells. […] Progress of reactions was monitored for 120 minutes at 37° C. using Clariostar plate reader (ex530-12, ems 600-40). […]
(§2) Data analysis: Slope of the linear portion of the progress curve was calculated using Clariostar software. […] Data was analyzed using GraphPad Prism 4 with “sigmoidal dose-response (variable slope)”; 4 parameters with Hill Slope. […]

Chains of the proteins cited; added tags and fusions are not shown. Residues count along the entry.
UniProt P33072, 170-418 limits assumed: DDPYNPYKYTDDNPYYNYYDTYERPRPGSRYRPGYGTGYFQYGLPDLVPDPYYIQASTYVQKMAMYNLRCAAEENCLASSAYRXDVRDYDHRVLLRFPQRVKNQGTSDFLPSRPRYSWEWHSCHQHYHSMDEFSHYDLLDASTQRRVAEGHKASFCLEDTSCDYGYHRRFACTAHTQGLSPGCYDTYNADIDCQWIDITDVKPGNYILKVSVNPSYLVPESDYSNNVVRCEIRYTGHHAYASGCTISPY
UniProt Q9Y4K0, 26-774 limits assumed: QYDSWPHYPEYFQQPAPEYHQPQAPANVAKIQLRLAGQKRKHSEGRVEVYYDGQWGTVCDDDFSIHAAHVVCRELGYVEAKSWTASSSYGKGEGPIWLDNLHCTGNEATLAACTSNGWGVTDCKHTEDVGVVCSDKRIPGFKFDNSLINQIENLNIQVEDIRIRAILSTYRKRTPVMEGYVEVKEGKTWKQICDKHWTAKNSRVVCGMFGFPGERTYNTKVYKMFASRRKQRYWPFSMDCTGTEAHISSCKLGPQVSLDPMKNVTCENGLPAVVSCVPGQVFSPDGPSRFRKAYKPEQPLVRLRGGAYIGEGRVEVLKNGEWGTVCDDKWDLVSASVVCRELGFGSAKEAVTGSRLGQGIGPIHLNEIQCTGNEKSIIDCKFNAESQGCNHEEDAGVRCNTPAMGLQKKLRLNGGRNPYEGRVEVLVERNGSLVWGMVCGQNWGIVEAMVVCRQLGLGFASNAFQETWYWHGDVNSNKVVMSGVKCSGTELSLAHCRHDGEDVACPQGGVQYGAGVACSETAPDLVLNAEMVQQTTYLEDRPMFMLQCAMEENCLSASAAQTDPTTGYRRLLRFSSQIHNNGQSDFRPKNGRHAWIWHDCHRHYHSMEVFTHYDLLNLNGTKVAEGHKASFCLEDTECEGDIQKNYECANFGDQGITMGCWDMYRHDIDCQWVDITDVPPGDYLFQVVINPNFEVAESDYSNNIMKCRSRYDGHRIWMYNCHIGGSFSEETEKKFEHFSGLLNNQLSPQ
UniProt P58215, 26-753 limits assumed: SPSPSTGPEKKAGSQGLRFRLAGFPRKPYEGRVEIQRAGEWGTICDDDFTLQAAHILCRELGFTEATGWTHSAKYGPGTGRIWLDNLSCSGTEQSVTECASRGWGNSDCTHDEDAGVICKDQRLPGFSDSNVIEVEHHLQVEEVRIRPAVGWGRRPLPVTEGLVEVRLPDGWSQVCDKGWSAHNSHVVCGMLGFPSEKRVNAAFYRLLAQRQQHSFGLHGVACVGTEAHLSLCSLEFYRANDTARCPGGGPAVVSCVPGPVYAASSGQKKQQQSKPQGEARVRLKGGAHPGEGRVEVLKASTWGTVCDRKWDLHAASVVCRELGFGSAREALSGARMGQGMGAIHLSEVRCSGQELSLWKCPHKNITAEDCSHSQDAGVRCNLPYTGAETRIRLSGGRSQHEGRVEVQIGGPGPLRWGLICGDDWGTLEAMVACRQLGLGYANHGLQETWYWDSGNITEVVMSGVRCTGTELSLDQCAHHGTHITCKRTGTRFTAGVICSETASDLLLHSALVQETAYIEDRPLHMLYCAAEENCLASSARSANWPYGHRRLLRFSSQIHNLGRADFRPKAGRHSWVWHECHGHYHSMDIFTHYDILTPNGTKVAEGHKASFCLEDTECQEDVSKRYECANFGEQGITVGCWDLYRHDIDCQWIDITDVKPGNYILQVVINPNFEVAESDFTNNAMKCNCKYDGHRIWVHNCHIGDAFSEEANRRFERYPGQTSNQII

[2] = molecular target: Recombinant human LOXL2 (lysyl oxidase like 2) (Homo sapiens, UniProt Q9Y4K0); test: LOXL2 inhibition assay (fluorometric, cadaverine/Amplex Red/HRP); settings: read-out: Activity Range LOXL2, IC50 class, recombinant human LOXL2, cadaverine substrate
Experimental: as §1, with “inhibit one or more of the lysyl oxidases LOXL2 and/or LOXL3” for “inhibit prototypic LOX”, “by the specific” for “by prototypic”, “LOX family” for “LOX”
Enzymes: Recombinant human LOXL2 (lysyl oxidase like 2) and recombinant human LOXL3 (lysyl oxidase like 3) were purchased from R&D systems and assays were performed in 1.2 M urea, 50 mM sodium borate buffer pH 8.0, and 10 mM CaCl.
Reaction: Final concentration in the LOXL2 and LOXL3 assays were as following and performed in a total volume of […]:
Experimental procedure: 5 μl of freshly prepared reaction buffer were delivered to reaction wells. Compounds were resuspended in 100% DMSO at 10 mM and delivered into buffer using acoustic technology (Echo550; nanoliter range). A 3× solution of LOXL2 or LOXL3 in reaction buffer was prepared (“enzyme solution”) and 5 μL of enzyme solution was added into the reaction wells. Buffer only was added to column 1 for no protein control. Reactions were incubated for 30 minutes at 37° C. A 3×mixture of cadaverine, Amplex Red, and HRP (“Substrate/Detection Mix) was prepared and subsequently 5 μL of the mixture added to each reaction well. Progress of reactions was monitored for 60 minutes at 37° C. using Clariostar plate reader (ex 530-12, ems 600-40). For all activity assays, pan-LOX inhibitor CCT365623 (Tang et al, 2017) and LOXL2/LOXL3 inhibitor PAT-1251 (PharmaKea) were included as standards.
Data analysis: Slope of the linear portion of the progress curve was calculated using Clariostar software. Typical analysis interval was between 8-30 min, but varied between experiments. The background subtracted signals (No protein wells are considered as background) were converted to % activity relative to DMSO controls. Data was analyzed using GraphPad Prism 4 with “sigmoidal dose-response (variable slope)”; 4 parameters with Hill Slope. Constraints: Bottom=Constant equal to 0. Top=Must be less than 120.

[3] = molecular target: Recombinant human LOXL3 (lysyl oxidase like 3) (Homo sapiens, UniProt P58215); test: LOXL3 inhibition assay (fluorometric, cadaverine/Amplex Red/HRP); settings: read-out: Activity Range LOXL3, IC50 class, recombinant human LOXL3, cadaverine substrate
Experimental: as §1, with “inhibit one or more of the lysyl oxidases LOXL2 and/or LOXL3” for “inhibit prototypic LOX”, “by the specific” for “by prototypic”, “LOX family” for “LOX”
Enzymes: Recombinant human LOXL2 (lysyl oxidase like 2) and recombinant human LOXL3 (lysyl oxidase like 3) were purchased from R&D systems and assays were performed in 1.2 M urea, 50 mM sodium borate buffer pH 8.0, and 10 mM CaCl. […]
Experimental procedure: 5 μl of freshly prepared reaction buffer were delivered to reaction wells. […] Progress of reactions was monitored for 60 minutes at 37° C. using Clariostar plate reader (ex 530-12, ems 600-40). […]
as §2

[4] = Microsome stability study; settings: tested form: TFA
Experimental: Pooled CD-1 mouse liver microsomes at 0.5 mg/mL were pre-incubated in phosphate buffer (100 mM, pH 7.4) containing 1 mM NADPH and 3 mM MgCl2 in a 96-well plate for 5 minutes at 37° C. Ultra-pure water was added instead of NADPH in the negative control group to exclude the misleading factor that resulted from instability of chemical itself. The reaction was initiated by adding test compound at the final concentration of 2 μM and incubated at 37° C. Aliquots were taken from the incubation at 0, 15, 30, 45 and 60 minutes followed by the addition of 4 volume of cold acetonitrile containing internal standards. Samples were centrifuged and supernatant was used for LC-MS/MS analysis.

[5] = PK study following IV and PO administration in male CD1 mice; set-up: AUClast/D: unit: (ng*h/mL)/(mg/kg); settings: tested form: TFA
Experimental: The objective of this study was to determine the pharmacokinetic (PK) profile of LOX enzyme inhibiting compounds following IV and PO administrations in male CD1 mice.
Male CDT mice from a qualified provider were used for all studies. Mice were 6-8 weeks old at the time of the experiment (˜20-30 g body weight). All animals for IV & PO administration were fasted overnight and fed after 4 hours collection. The dose formulation was kept at room temperature no more than 2 hours.
Dose formulations were prepared fresh on the day of dosing and stored at ambient temperature. Dose formulations were as following: […]
Blood samples were collected from the dorsal metatarsal vein. Circa 0.03 mL were collected per time point and 0.3 mL at final time point via heart puncture. The blood samples were centrifuged at 4000 g for 5 minutes at 4° C. to obtain plasma and samples were immediately frozen in the upright position and stored at −75±15° C. prior to analysis.
Blood samples were collected at time points outlined in Table 12:
Acceptable time ranges for blood collection were as following: 5 min and 15 min: within +0.25 minute, 30 min, 1 hour, and 2 hours: within +2 minutes; 4 hours, 6 hours, 8 hours, and 24 hours: within +10 minutes.
Concentrations of LOX enzyme inhibiting compounds in the plasma were analyzed using a LC-MS/MS method. WinNonlin (Phoenix™, version 8.2) software was used for pharmacokinetic calculations. The following pharmacokinetic parameters were calculated, whenever possible from the plasma concentration versus time data:
IV administration: T1/2, C0, AUClast, AUCinf, MRTinf, Cl, Vss, Number of Points for Regression.
PO administration: T1/2, Cmax, Tmax, AUClast, AUCinf and F. Number of Points for Regression.
The pharmacokinetic data were described using descriptive statistics such as mean, standard deviation.
Results are outlined in Table 13 (IV), Table 14 (PO) and FIGS. 1-3. Data represent mean values from three mice.

[6] = male mouse liver microsomes 0.5 mg/mL, 2 μM, NADPH
[7] = IV, 10 mg/kg, plasma, mean of three mice
[8] = PO, 50 mg/kg, plasma, mean of three mice

- pIC50 [1]: < 4.52
- pIC50 [2]: 4.52 to 6.00
SMILES: NCc1cccc(S(=O)(=O)c2cc(C(=O)N3CCS(=O)(=O)CC3)cc(C3OCCCO3)c2)c1

- pIC50 ([1]; tested form: TFA): > 6.30
- pIC50 ([2]; tested form: TFA): > 6.30
- pIC50 ([3]; tested form: TFA): > 6.30
- CLint [4, 6]: 65.08 μL/min/mg protein
- T1/2 [4, 6]: 21.30 min
- Predicted hepatic CL ([4]; mouse liver microsomes): 68.38 mL/min/kg
- Scaled-up CLint ([4]; mouse liver microsomes): 284.71 mL/min/kg
- AUCinf [5, 7]: 1150 ng·h/mL
- AUClast [5, 7]: 1140 ng·h/mL
- AUClast/D [5, 7]: 114
- C0 [5, 7]: 3340 ng/mL
- CIobs [5, 7]: 148
- MRTInf—obs [5, 7]: 49.2 min
- T1/2 [5, 7]: 76.2 min
- Vss—obs [5, 7]: 7.28 L/kg
- F ([5]; PO 50 mg/kg versus IV 10 mg/kg): 31
- AUCinf [5, 8]: 1780 ng·h/mL
- AUClast [5, 8]: 1770 ng·h/mL
- AUClast/D [5, 8]: 972
- Cmax [5, 8]: 1440 ng/mL
- MRTInf—obs [5, 8]: 66.6 min
- T1/2 [5, 8]: 69 min
- Tmax [5, 8]: 30 min
SMILES: CS(=O)(=O)N1CCN(C(=O)[C@H]2C[C@@H](C3CCCCC3)CN(S(=O)(=O)c3ccc(CN)s3)C2)CC1 (relative stereo)

- pIC50 [1]: < 4.52
- pIC50 [2]: > 6.30
- pIC50 [3]: 4.52 to 6.00
SMILES: NCc1cccc(S(=O)(=O)[C@@H]2C[C@H](C3CCCCC3)CN(C(=O)N3CCOCC3)C2)c1 (relative stereo)

SMILES: NCc1ccnc(S(=O)(=O)N2C[C@@H](C(=O)N3CCOCC3)C[C@@H](N3CCCCC3)C2)c1 (relative stereo)
- pIC50 ([1]; tested form: TFA): < 4.52
- pIC50 ([2]; tested form: TFA): > 6.30
